Test results from US20160346313A1, “USES OF OLIGOURONATES IN CANCER TREATMENT” (NORWEGIAN UNIVERSITY OF SCIENCE AND TECHNOLOGY, priority 2013, published 2016).

Test system: Capan-2 human pancreas tumour xenograft
Assay: Capan-2 human pancreas tumour xenograft model: tumour weight, with statistical analysis (ANOVA by day, Eav, log scale, exponential growth model)
Format: in vivo, Female Athymic Nude mice
Details: Gemcitabine 5
Procedure: The purpose of this study was to evaluate the anti-tumour activity of G-Block as an enhancer in combination with gemcitabine in the Capan-2 human pancreas tumour xenograft model. Gemcitabine was dosed at a level that would not be curative and allow for proof of concept evaluation in this model. Efficacy was assessed by comparison of tumour weights of treated groups with the vehicle control group on Day 11 and 74 and between combination groups and their respective single agents on Day 11 and 74.
G-Block (Lot #PolyG 230712-Dp10, 95%G) was received as a white hygroscopic amorphous powder from NTNU Technology Transfer AS (Trondheim, Norway) and stored desiccated at room temperature until use. NTNU's G-Block was dissolved in MilliQ water to a concentration of 70 mg/ml to be used as the stock solution. This solution was used to deliver a dose of approximately 560 mg/kg in a 200 μl fixed dose. The 70 mg/ml solution was then diluted in 0.9% 150 mM NaCl (B. Braun Medical; Irvine, Calif.) to deliver doses of approximately 200 mg/kg, 75 mg/kg, 25 mg/kg, and 5 mg/kg in a 200 μL fixed dose volume. All dosing calculations assume a 25 g animal. NTNU's G-Block 70 mg/ml stock solution was formulated at the beginning of the study and used for dilutions before each dose, sterile filtered, and stored at 4° C. between doses. All unused dosing mixture was properly disposed of at TD2 after the study ended.
Gemcitabine (Lot #A892259C) was received as a solution from Eli Lilly and Co. (Indianapolis, Ind.) and stored at room temperature until use. […]
Female mice were inoculated subcutaneously in the right flank with 0.1 mL of a 50% RPMI/50% Matrigel™ (BD Biosciences, Bedford, Mass.) mixture containing a suspension of Capan-2 tumor cells (approximately 5.0×10^6 cells/mouse). Seven days following inoculation, tumors were measured using calipers and tumor weight was calculated using the animal study management software, Study Director V.2.1.1 (Study Log)^1. […] Body weights were recorded when the mice were randomized and were taken twice weekly thereafter in conjunction with tumor measurements. […]

Measured: Ratio vs Vehicle

Nc1ccn([C@@H]2O[C@H](CO)[C@@H](O)C2(F)F)c(=O)n1 [Gemcitabine 5, Gemcitabine]
1.14: Day 64 | Day 67 | Day 71
